The values that follow come from ChEMBL document CHEMBL6078683, “Discovery of MT-7117 (Dersimelagon Phosphoric Acid): A Novel, Potent, Selective, and Nonpeptidic Orally Available Melanocortin 1 Receptor Agonist” (J Med Chem, 2024).

Calls of active or inactive are those of the source. The calls are words filed in the database; no cut-off is given here.

For assay [1], the species on record is Mus musculus. The following applies: dose 0.3-3 mg/kg, route po, time 4.0 weeks.
The species entered for assay [2] is Mus musculus. The following applies: dose 0.3-3 mg/kg, route po, time 4.0 weeks. This is another data set of the same source.

On to `COC[C@H]1CN(C(=O)[C@]2(F)CN(C3CCCC3)C[C@H]2c2ccc(OC)cc2)C[C@@H]1c1ccc(C(F)(F)F)cc1N1CCC(C(=O)O)CC1`, for which the inhibition entry in the assay listed under Mus musculus [1] and in the assay listed under Mus musculus [2] was “Active” throughout.
